Assay results reported in patent publication US20250155433A1, “FLUORESCENT SENSORS FOR DETECTION OF SIDEROPHORES AND OTHER MOLECULES PRODUCED BY BACTERIAL PATHOGENS” (Kansas State University Research Foundation, priority 2021, published 2025).

The chains behind the UniProt entries cited, without tags or fusion partners. Where a name states a change or a piece, a line headed by the entry shows the natural chain unless it says otherwise.
UniProt D0C8V9: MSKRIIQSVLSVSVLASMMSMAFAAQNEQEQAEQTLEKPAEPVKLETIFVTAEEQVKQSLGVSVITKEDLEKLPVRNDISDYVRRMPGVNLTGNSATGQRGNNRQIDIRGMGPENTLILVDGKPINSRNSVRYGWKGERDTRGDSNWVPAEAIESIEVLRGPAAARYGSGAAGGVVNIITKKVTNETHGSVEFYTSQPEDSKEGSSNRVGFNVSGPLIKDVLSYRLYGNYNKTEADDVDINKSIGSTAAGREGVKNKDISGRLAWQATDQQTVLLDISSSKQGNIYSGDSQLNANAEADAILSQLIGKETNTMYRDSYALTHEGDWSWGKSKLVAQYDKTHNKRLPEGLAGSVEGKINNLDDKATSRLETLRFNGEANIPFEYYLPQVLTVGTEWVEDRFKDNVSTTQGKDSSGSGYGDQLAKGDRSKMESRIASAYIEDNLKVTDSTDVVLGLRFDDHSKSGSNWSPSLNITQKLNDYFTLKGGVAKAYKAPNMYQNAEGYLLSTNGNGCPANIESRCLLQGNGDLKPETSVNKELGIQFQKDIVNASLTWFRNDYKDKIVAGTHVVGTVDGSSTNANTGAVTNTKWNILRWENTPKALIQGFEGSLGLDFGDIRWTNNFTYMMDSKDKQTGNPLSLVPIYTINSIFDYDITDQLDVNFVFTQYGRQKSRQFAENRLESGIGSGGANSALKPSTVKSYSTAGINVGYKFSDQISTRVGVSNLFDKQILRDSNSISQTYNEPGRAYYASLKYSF

Biological target: T1, AbaPirA (Acinetobacter baumannii, UniProt D0C8V9)
T1 construct: fused on or other part: EcoFepA signal peptide in place of its own (cleaved on export); fluorescein maleimide on the engineered Cys
Assay type: binding
Details: read-out: Affinity (KD) of sensor AbaPirA, apo siderophore; apo (parenthetic value); S328C

O=C(N[C@H]1COC(=O)[C@@H](NC(=O)c2cccc(O)c2O)COC(=O)[C@@H](NC(=O)c2cccc(O)c2O)COC1=O)c1cccc(O)c1O [Ent, enterobactin]
Kd: 7.3 µM
